Experimental data published in patent publication US20150376271 (published 2015).

Sequences of proteins named here, by UniProt entry; tags and fusion partners are left off. A line that says so, or that is headed by a name, gives the form on record, which may keep a tag or linker.
UniProt P15692, other isoform, or with tags, fused parts or gaps: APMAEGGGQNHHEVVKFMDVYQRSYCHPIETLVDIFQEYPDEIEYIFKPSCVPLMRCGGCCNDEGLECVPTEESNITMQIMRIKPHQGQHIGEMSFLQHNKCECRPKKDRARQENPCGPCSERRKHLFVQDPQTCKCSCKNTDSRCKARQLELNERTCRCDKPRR

Molecular target: VEGFA-165 (human, UniProt P15692)
Test: competition

- IC50: 12.5 nM
B1: ranibizumab (antibody)
chain 1: EVQLVESGGGLVQPGGSLRLSCAASGYDFTHYGMNWVRQAPGKGLEWVGWINTYTGEPTYAADFKRRFTFSLDTSKSTAYLQMNSLRAEDTAVYYCAKYPYYYGTSHWYFDVWGQGTLVTVSSASTKGPSVFPLAPSSKSTSGGTAALGCLVKDYFPEPVTVSWNSGALTSGVHTFPAVLQSSGLYSLSSVVTVPSSSLGTQTYICNVNHKPSNTKVDKKVEPKSCDKTHL
chain 2: not shown
